One molecule from patent US9663463B2, “3-azabicyclo[3.1.0]hexane derivative and use thereof for medical purpose” (priority 2013, dated 2017) can be followed below.

Counter-ions that a name gives are not always drawn.

The data set in a line: Plasma concentration of test substance at ED50 value (mice, LC/MS/MS). Format: in vivo. The following applies: at the ED50 value, at time of morphine administration, oral, linear regression from two doses. The protocol:
The concentration of the test substances in blood plasma was confirmed by using mice of the same week-old for the same dose as that used in the evaluation of the anti-pruritic effect. The test substance was administered by forced oral administration of an administration vehicle prepared in a similar manner to that in the evaluation of the anti-pruritic effect under a non-fasting condition. The blood samples were collected from the orbital venous plexus, within from 15 minutes after the administration of the test substance to after 180 minutes at the maximum, for multiple times including the timing at which the morphine solution was intracisternally administered, under inhalation anesthesia with diethyl ether or isoflurane using a heparin-treated hematocrit tubes. The collected blood samples were immediately ice-cooled and centrifuged at 1,800 g for 15 minutes at 4° C., and the plasma fractions were transferred and stored under freezing at −30° C. or less until measurement.
The concentrations of the test substances in plasma were measured using LC/MS/MS. Furthermore, as the measurement samples for LC/MS/MS, the supernatants obtained by adding an internal standard substance and acetonitrile in an amount within a range from 5-fold to 10-fold of the amount of the plasma to the collected plasma samples, and removing proteins therefrom, was used.

For `CC[C@]1(c2cccc(NS(=O)(=O)C3CC3)c2)[C@@H]2CN(CCCC3(OC)CCC(F)(F)CC3)C[C@@H]21` [Example 6-(b), N-(3-{(1R,5S,6r)-3-[3-(4,4-difluoro-1-methoxycyclohexyl)propyl]-6-ethyl-3-azabicyclo[3.1.0]hexan-6-yl}phenyl)cyclopropanesulfonamide hydrochloride], the “Plasma concentration of test substance” value is given as 7.94 nM.
